{"sequences": {"note": "By UniProt entry, the sequences of proteins in these tests, tags left out.", "UniProt P35372, whole entry": "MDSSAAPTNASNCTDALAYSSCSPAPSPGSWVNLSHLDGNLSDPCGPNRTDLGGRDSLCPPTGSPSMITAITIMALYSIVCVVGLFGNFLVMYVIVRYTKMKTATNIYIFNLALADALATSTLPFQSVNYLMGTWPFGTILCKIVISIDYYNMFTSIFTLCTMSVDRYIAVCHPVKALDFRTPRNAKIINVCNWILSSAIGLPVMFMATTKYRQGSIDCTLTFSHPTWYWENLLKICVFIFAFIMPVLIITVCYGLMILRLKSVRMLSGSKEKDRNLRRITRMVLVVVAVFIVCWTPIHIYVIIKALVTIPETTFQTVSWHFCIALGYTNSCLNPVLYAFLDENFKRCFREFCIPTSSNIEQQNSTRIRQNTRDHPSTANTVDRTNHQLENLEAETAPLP"}, "source": "paper PMC12526156", "about": "“Optimization of the Macrocyclic Tetrapeptide [D-Trp]CJ-15,208 to Prevent Stress-Induced Relapse of Cocaine-Seeking Behavior” (Molecules, 2025)", "target": "human MOR (Homo sapiens, UniProt P35372)", "details": "read-out: Kd for binding to hMOR-CHO membranes", "data": [{"substance": "[^3H][D-Ala^2,N-MePhe^4,glyol]enkephalin [[^3H]DAMGO]", "values": [{"measurement": "Kd", "value": 0.556, "unit": "nM"}]}]}
